# Measurements taken from ChEMBL document CHEMBL5365409, “Novel series of tunable µOR modulators with enhanced brain penetration for the treatment of opioid use disorder, pain and neuropsychiatric indications” (Bioorg Med Chem Lett, 2023).
# Sequences of proteins named here, by UniProt entry; tags and fusion partners are left off.
# UniProt P35372, whole entry: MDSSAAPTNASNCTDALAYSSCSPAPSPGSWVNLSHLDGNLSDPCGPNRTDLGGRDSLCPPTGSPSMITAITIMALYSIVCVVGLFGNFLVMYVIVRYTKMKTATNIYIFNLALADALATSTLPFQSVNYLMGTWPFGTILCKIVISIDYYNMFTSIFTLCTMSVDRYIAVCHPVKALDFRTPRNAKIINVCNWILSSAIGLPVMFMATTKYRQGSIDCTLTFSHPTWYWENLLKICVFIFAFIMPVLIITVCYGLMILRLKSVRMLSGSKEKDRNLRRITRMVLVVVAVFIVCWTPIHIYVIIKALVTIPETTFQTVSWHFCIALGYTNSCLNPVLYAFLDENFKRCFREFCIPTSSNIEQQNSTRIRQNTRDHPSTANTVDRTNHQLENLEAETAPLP
# Molecular target: Mu-type opioid receptor (Homo sapiens, UniProt P35372)
# Assay: Agonist activity at human mu opioid receptor stably transfected in CHO cells assessed as maximal response by cAMP assay relative to DAMGO
# Assay type: functional, cell-based
SMILES,Emax (filed as agonist) [%],Emax [%]
C[C@H](OC(=O)NC[C@H](Cc1ccc(O)cc1)N(C)C)c1ccccc1,43,–
CN(C)[C@@H](CNC(=O)N[C@@H](c1ccccc1)C1CC1)Cc1ccc(O)cc1,–,17
CN(C)[C@@H](CNC(=O)N[C@H](c1ccccc1)C1CC1)Cc1ccc(O)cc1,48,–
C[C@@H](OC(=O)NC[C@H](Cc1ccc(O)cc1)N(C)C)c1ccccc1,–,33
C[C@@H](OC(=O)NC[C@@H](Cc1ccc(O)cc1)N(C)C)c1ccccc1,–,28
CN(C)[C@H](CNC(=O)N[C@@H](c1ccccc1)C1CC1)Cc1ccc(O)cc1,–,22
CN(C)[C@H](CNC(=O)N[C@H](c1ccccc1)C1CC1)Cc1ccc(O)cc1,47,–
